Source: PubChem BioAssay AID1777 (Sanford-Burnham Center for Chemical Genomics, 2009)
This is one part of the list. Entries with a potency or affinity are not part of this list. Calls of active or inactive are those of the source. Cut-off read from the data, not from the text of the source: active = activation above about 50% (passing the limit was not always enough); inactive = the rest.

Protein sequences, listed by entry. Tags and fused reporters are not part of them. Lines headed by an entry give the natural chain unless they say otherwise; changes in a name come on top.
UniProt P41145: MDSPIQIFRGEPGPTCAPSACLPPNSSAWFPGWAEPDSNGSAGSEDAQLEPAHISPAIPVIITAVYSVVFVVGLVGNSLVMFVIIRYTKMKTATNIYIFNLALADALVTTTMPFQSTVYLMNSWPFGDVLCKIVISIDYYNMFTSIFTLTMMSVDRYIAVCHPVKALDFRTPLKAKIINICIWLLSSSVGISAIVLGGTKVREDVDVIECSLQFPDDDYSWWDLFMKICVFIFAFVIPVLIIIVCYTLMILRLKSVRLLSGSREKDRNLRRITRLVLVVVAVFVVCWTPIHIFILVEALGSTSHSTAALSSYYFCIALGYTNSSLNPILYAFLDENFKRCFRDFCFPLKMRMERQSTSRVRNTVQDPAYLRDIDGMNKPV

What follows are compounds tested against Kappa-type opioid receptor (Homo sapiens) (UniProt P41145) (assay: KOR agonists, beta-arrestin recruitment, primary screen, cell-based, luminescence, uHTS (AID 1777)). Conditions: at 10 µM, active compounds read high.
`Nc1nonc1-c1nc2ccccc2n1CC(=O)N1CCN(c2ccc(F)cc2)CC1` was tested, and the activation was inactive: 0.2%. `CN(c1ccccc1)S(=O)(=O)c1cccc(NC(=O)Cn2cnc3c2c(=O)n(C)c(=O)n3C)c1` was tested, and the activation was inactive: -5.8%. `CN(C)CCn1c(=N)n(CC(O)c2ccc(Cl)c(Cl)c2)c2ccccc21` (configuration not stated) was tested, and the activation was inactive: 1.3%. With `Cc1cccc(CSc2nc3ccncc3n2CC(=O)Nc2ccc(C)c(C)c2)c1` the activation was inactive: 1%. In the case of `Cc1ccc2oc(-c3cccc(NC(=O)Cn4cnc5c(=O)n(C)c(=O)n(C)c54)c3)nc2c1`, the activation is reported as inactive: 0.3%. `Cc1cc2ncn(C3CC(=O)N(Cc4ccccc4)C3=O)c2cc1C` (configuration not stated) was tested, and the activation was inactive: -4.8%. `c1ccc2c(c1)nc1n2CCN1CCNC1CCCCC1` was tested, and the activation was inactive: -0.7%. For `Cn1c(=O)c2ncn(CC(=O)Nc3cccc(-c4nc5ccccc5s4)c3)c2n(C)c1=O`, the activation was inactive: 2.3%. `COc1ccc(N/C(=N/P(=O)(N2CCOCC2)N2CCOCC2)N2CCOCC2)cc1` was tested, and the activation was inactive: -1.9%. In the case of `CN(C)C(=O)Cn1c(SCC(=O)NCc2ccc3c(c2)OCO3)nc2ccccc21`, the activation is reported as inactive: -4.6%. In the case of `CC(C)(C)NC(=O)Cn1c(SCC(=O)NC2CC2)nc2ccccc21`, the activation is reported as inactive: -2%. For `Cc1ccc(Cn2nnnc2CN2CCC(n3nnc4cc(C(F)(F)F)ccc43)CC2)cc1`, the activation was inactive: -4.4%. With `Nc1nonc1-c1nc2ccccc2n1CC(=O)NC1CCCC1` the activation was inactive: 2.2%. `O=C(O)CCc1nn2c3ccccc3n(CCN3CCCCC3)c2nc1=O` was tested, and the activation was inactive: -6.6%. `Cc1cnc(NC(=O)Cn2cnc3c2c(=O)n(C)c(=O)n3C)s1` was tested, and the activation was inactive: 3.4%. With `CCN(CC)c1ccc(CNc2nc3ccccc3n2CCN2CCOCC2)cc1` the activation was inactive: -4.6%. In the case of `Cc1ccc(S(=O)(=O)Nc2ccc(Cl)cc2)cc1NC(=O)Cn1cnc2c1c(=O)n(C)c(=O)n2C`, the activation is reported as inactive: 1%. In the case of `CC(C)NC(=O)CSc1nc2ccccc2n1CC(=O)N(C(C)C)C(C)C`, the activation is reported as inactive: -3.5%. `Cc1ccc2c(c1)C1CN(C)CCC1N2C(=O)c1ccco1` (configuration not stated) was tested, and the activation was inactive: -4%. With `NC(=O)CC(NC(=O)c1cccc(Br)c1)c1ccc(NC2CCN(Cc3ccccc3)CC2)c([N+](=O)[O-])c1` (configuration not stated) the activation was inactive: 0.7%. For `N=c1n(CCN2CCCCC2)c2ccccc2n1CC(O)c1ccc(Cl)c(Cl)c1` (configuration not stated), the activation was inactive: 88.4%. In the case of `Cc1c2c(nc3ccccc13)SC(C(Cl)Cl)C2` (configuration not stated), the activation is reported as inactive: -0.7%. With `O=C(CCCCCNC(=O)N1CCn2c1nc1ccccc12)N[C@@H](C(=O)O)c1ccccc1` the activation was inactive: -0.8%. In the case of `NC(=O)CS(=O)(=O)c1nc2ccccc2n1CC(=O)N1CCCCC1`, the activation is reported as inactive: 2.3%. `O=C(Cn1cnc2ccccc21)NC(c1ccccc1)c1ccccc1` was tested, and the activation was inactive: 6.8%. In the case of `NC(=O)CC(NC(=O)Cc1ccc(Br)cc1)c1ccc(NC2CCN(Cc3ccccc3)CC2)c([N+](=O)[O-])c1` (configuration not stated), the activation is reported as inactive: -4.5%. In the case of `CCn1cc(C(=O)N2CCn3c(nc4ccccc43)C2)c(=O)c2ccc(C)nc21`, the activation is reported as inactive: 1.8%. `Cc1cc(=O)[nH]c(N[N+](=O)[O-])n1` was tested, and the activation was inactive: -0.9%. With `Cn1c(=O)c2c(nc(Cl)n2CC(=O)N2CCCCC2)n(C)c1=O` the activation was inactive: 1.8%. With `c1ccc2c(c1)ncn2CCN1CCCCC1` the activation was inactive: -6.9%. `Cn1c(=O)c2c(ncn2CC(=O)Nc2nccs2)n(C)c1=O` was tested, and the activation was inactive: -2.2%. For `O=C(OC1CN2CCC1CC2)C12CC3CC(CC(C3)C1)C2` (configuration not stated), the activation was inactive: -4.1%. In the case of `O=C1C2CCCCC2C(=O)N1c1ccc(NC2CCN(Cc3ccccc3)CC2)c([N+](=O)[O-])c1` (configuration not stated), the activation is reported as inactive: 2.4%. `Cc1ccc2c(c1)C1CN(C)CCC1N2C(=S)Nc1ccc(Cl)cc1Cl` (configuration not stated) was tested, and the activation was inactive: -3.4%. `Cn1c(=O)c2c(nc(NCc3ccccc3)n2CC(N)=O)n(C)c1=O` was tested, and the activation was inactive: 6.7%. `C=CCSc1nnc(NC(=O)Cn2cnc3c2c(=O)n(C)c(=O)n3C)s1` was tested, and the activation was inactive: -2%. With `Cc1cc2ncn(C3CC(=O)N(C)C3=O)c2cc1C` (configuration not stated) the activation was inactive: 0%. `COc1ccc(CNC(=O)CCNC(=O)N2CCn3c2nc2ccccc23)cc1` was tested, and the activation was inactive: 6.8%. In the case of `CC(O)CNc1nc2ccccc2n1CC(=O)N1CCN(Cc2ccccc2)CC1` (configuration not stated), the activation is reported as inactive: 1.5%. In the case of `COc1cccc(NC(=O)[C@@H](NC(=O)N2CCn3c2nc2ccccc23)C(C)C)c1`, the activation is reported as inactive: 0.1%. With `CCCCNc1nc2ccccc2n1CC(=O)Nc1c(C)cccc1CC` the activation was inactive: 2.5%. In the case of `COc1cc(I)ccc1[As](=O)(O)O`, the activation is reported as inactive: -0.5%. `c1ccc(CN2CCC(Nc3nc(-c4ccccc4)nc4ccccc34)CC2)cc1` was tested, and the activation was inactive: 5.3%. `Cc1ccc(/C=N/NC(=O)Cn2cnc3ccccc32)o1` was tested, and the activation was inactive: -2.9%. In the case of `Cn1c(=O)[nH]c(=O)c2c1nc(N1CCCCCC1)n2CCN1CCCCCC1`, the activation is reported as inactive: 6.3%. `CC(C)N(C(=O)Cn1c(-c2ccccc2Cl)nc2ccccc21)c1ccccc1` was tested, and the activation was inactive: 3.4%. With `CCOC(=O)c1cccc(NC(=O)Cn2c(CC(=O)NC)nc3ccccc32)c1` the activation was inactive: -2.1%. With `C(=N\c1nc2ccccc2n1CCN1CCCCC1)/c1cccs1` the activation was inactive: -1.1%. `CSCC[C@H](NC(=O)N1CCn2c1nc1ccccc12)C(=O)NCc1ccccc1` was tested, and the activation was inactive: -3.9%. In the case of `Cn1c(=O)[nH]c(=O)c2c1nc(CN1CCN(c3ccc(F)cc3)CC1)n2CCN1CCOCC1`, the activation is reported as inactive: 1%. `COc1ccc2nc(NP(=O)(c3ccccc3)c3ccccc3)sc2c1` was tested, and the activation was inactive: -6.9%. `CCCn1c(=O)[nH]c(=O)c2c1nc(-c1ccc3c(c1)OCCO3)n2CCN1CCOCC1` was tested, and the activation was inactive: 6.8%.
